Antibody variant affinities, Ab-14 light chain, assay B

Binding partner: SARS-CoV-2 spike HR2 peptide, sequence PDVDLGDISGINAS.

Ab-14 is the parent antibody, in scFv form: VH, then a 15-residue (Gly4Ser)3 linker, then VL. The heavy chain is unchanged in all variants.
VH: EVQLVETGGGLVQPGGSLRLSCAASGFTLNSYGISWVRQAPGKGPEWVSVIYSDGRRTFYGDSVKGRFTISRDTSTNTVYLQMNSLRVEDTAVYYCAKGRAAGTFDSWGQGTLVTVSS
VL: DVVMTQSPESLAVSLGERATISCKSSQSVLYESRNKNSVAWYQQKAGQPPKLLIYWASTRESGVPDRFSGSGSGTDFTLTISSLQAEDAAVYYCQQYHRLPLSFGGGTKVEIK

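The starting antibody came from a phage panning campaign against this peptide. These sequences belong to a second round, designed from the earlier measurements on random variants of the parent. Their group label is 14L_GP_Gen (GP: Gaussian process model; Gen: genetic algorithm; a sequence that several methods proposed may carry one label only). The scFvs were displayed on barcoded MATa yeast, the peptide on MATalpha yeast. The frequency of each diploid, read from paired DNA barcodes, reflects how well the two displayed proteins bind. A regression on co-assayed BCL2-family reference pairs converts the normalised counts of each replicate to an apparent Kd. The assay was run in six technical replicates.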

The parent's light chain CDRs are KSSQSVLYESRNKNSVA, WASTRES, QQYHRLPLS; each variant's own CDRs replace them letter for letter. Affinities are written as log10 Kd with Kd in nM; a lower number is a better binder.

CDR-L1	CDR-L2	CDR-L3	log10 Kd, replicates	control signals
KVQQSELYESRNKNSVA	EASTRES	QQYHRLPLS	1.09 / 0.67 / 0.46 / 0.44 / 0.40 / 1.28	0/18
KVSQSFLYESRNKNAVA	NASTRES	QQYHRLPLS	-0.29 / -0.19 / -0.52 / -0.59 / -0.25 / -0.23	3/18 (2.65)
KLSQSDLYESRNKNNVA	NASQRES	QQYHRLPLS	-0.16 / -0.43 / -0.33 / -0.24 / -0.16 / -0.04	0/18
KLSQSELYESRNKNNVA	EASQRES	QQYHRLPLS	-0.35 / -0.17 / -0.32 / -0.55 / -0.37 / -0.37	0/18
KLSWSMLYESRNKNSVA	NASTRMS	QQYHRLPLS	-0.15 / -0.19 / -0.08 / 0.01 / 0.07 / 0.10	0/18
KLSQSDEYESRNKNSVA	NASQRES	QQYHRLPLS	-0.25 / -0.34 / -0.44 / -0.39 / -0.45 / -0.22	2/18 (2.67)
KLSQSVPYESRNKNSVA	NASTREV	QQYHRLPLS	0.08 / -0.16 / -0.40 / -0.39 / -0.34 / -0.14	0/18
KLPQSVLYESRNSNSVA	NASTRES	QQYHRLPLS	0.09 / 0.03 / 0.02 / -0.12 / 0.00 / 0.07	1/18 (3.02)
KLSQSWLYESRNKNSVA	EASQRES	QQYHRLPLS	0.32 / 0.26 / 0.21 / 0.13 / 0.11 / 0.30	0/18
KVSQSYLYESRNKNSVA	NASTRLS	QQYHRLPLS	-0.03 / -0.48 / -0.41 / -0.31 / -0.21 / -0.05	2/18 (2.85)
KLSQSVLYESRNKNSVA	GASCRES	QQYHRLPLS	0.09 / -0.10 / -0.07 / -0.12 / 0.06 / 0.00	2/18 (2.63)
KLSQSWLYESRNKNNVA	EASTRMS	QQYHRLPLS	-0.34 / -0.58 / -0.55 / -0.44 / -0.42 / -0.46	0/18
KLSQSMLYESRNKNAVA	NASTRMS	QQYHRLPLS	0.00 / -0.06 / -0.20 / -0.14 / -0.31 / 0.05	0/18
KLQQSVWYESRNKNSVA	NASTRES	QQYHRLPLS	-0.03 / -0.05 / -0.13 / -0.20 / -0.23 / -0.05	1/18 (2.27)
KISQSWLYESRNKNSVA	NASQRLS	QQYHRLPLS	0.41 / 0.39 / -0.10 / -0.10 / -0.07 / 0.24	1/18 (2.92)
KISQSYLYESRNKNSVA	NASQRES	QQYHRLPLS	-0.75 / -0.84 / -0.93 / -0.93 / -0.75 / -0.59	0/18
KVSQSGLYESRNKNSVA	NASTREQ	QQYHRLPLS	-0.17 / -0.31 / -0.34 / -0.39 / -0.43 / -0.19	2/18 (2.98)
KLSQSVLYESRNKNSVA	GASTRES	QCYHRLPLS	0.42 / 0.28 / 0.07 / -0.02 / 0.17 / 0.34	1/18 (2.65)
HLSQSVWYESRNKNSVA	NASTRES	QQYHRLPLS	0.41 / 0.49 / 0.33 / 0.52 / 0.05 / 0.62	0/18
KVSQSMLYESRNKNSVA	DASTRLS	QQYHRLPLS	0.18 / -0.18 / -0.17 / 0.14 / -0.15 / 0.16	0/18
KLSQSKLYESRNKNNVA	NASQRES	QQYHRLPLS	-0.35 / -0.62 / -0.62 / -0.51 / -0.74 / -0.40	2/18 (2.54)
KVSQSMLYESRNKNSVA	EASTRES	QQYHRLPLS	0.16 / -0.20 / -0.17 / -0.41 / -0.34 / 0.10	0/18
KLQQSVEYESRNKNSVA	NASQRLS	QQYHRLPLS	-0.16 / -0.20 / -0.30 / -0.34 / -0.44 / -0.11	1/18 (2.15)
KFSQSWLYESRNKNSVA	GASTRES	QQYHRLPLS	0.84 / 0.76 / 0.35 / 0.55 / 0.69 / 0.54	1/18 (2.62)
KVSQSQLYESRNKNNVA	EASTRES	QQYHRLPLS	-0.25 / -0.28 / -0.47 / -0.45 / -0.46 / -0.21	2/18 (3.43)
KVSQSVLYESRNKNSVA	NASQREQ	QQYHRLPLS	-0.23 / -0.12 / -0.15 / -0.52 / -0.15 / -0.07	1/18 (3.08)
KLSQSWLYESRNKNSVA	NASQRED	QQYHRLPLS	0.25 / 0.21 / 0.32 / -0.14 / 0.20 / 0.48	0/18
KLSQSVLYESRNPNSVA	EASTRES	QQYHRLPLS	0.07 / -0.23 / -0.32 / -0.40 / -0.34 / -0.10	0/18
KLSQSELYESRNKNSVA	GASTRED	QQYHRLPLS	0.48 / 0.38 / 0.11 / 0.62 / 0.48 / 0.76	1/18 (2.47)
KLSQSELYESRNKNSVA	AASTRES	QQYHRLPLS	0.11 / -0.14 / 0.10 / -0.33 / -0.16 / 0.03	0/18
KLPQSWLYESRNKNSVA	NASTREQ	QQYHRLPLS	-0.50 / -0.59 / -0.40 / -0.55 / -0.33 / -0.40	1/18 (1.94)
KMYQSVLYESRNKNSVA	NASTRES	QQYHRLPLS	-0.29 / -0.26 / -0.37 / -0.58 / -0.22 / -0.40	1/18 (3.91)
KLPQSELYESRNKNSVA	NASTRED	QQYHRLPLS	-0.21 / -0.36 / -0.31 / -0.48 / -0.41 / -0.26	1/18 (2.72)

Repeated from above, the 5 best binders with a signal in all replicates:

{"CDR-L1": "KISQSYLYESRNKNSVA", "CDR-L2": "NASQRES", "CDR-L3": "QQYHRLPLS", "log10 Kd, replicates": "-0.75 / -0.84 / -0.93 / -0.93 / -0.75 / -0.59", "control signals": "0/18"}
{"CDR-L1": "KLSQSKLYESRNKNNVA", "CDR-L2": "NASQRES", "CDR-L3": "QQYHRLPLS", "log10 Kd, replicates": "-0.35 / -0.62 / -0.62 / -0.51 / -0.74 / -0.40", "control signals": "2/18 (2.54)"}
{"CDR-L1": "KLSQSWLYESRNKNNVA", "CDR-L2": "EASTRMS", "CDR-L3": "QQYHRLPLS", "log10 Kd, replicates": "-0.34 / -0.58 / -0.55 / -0.44 / -0.42 / -0.46", "control signals": "0/18"}
{"CDR-L1": "KLPQSWLYESRNKNSVA", "CDR-L2": "NASTREQ", "CDR-L3": "QQYHRLPLS", "log10 Kd, replicates": "-0.50 / -0.59 / -0.40 / -0.55 / -0.33 / -0.40", "control signals": "1/18 (1.94)"}
{"CDR-L1": "KLSQSELYESRNKNNVA", "CDR-L2": "EASQRES", "CDR-L3": "QQYHRLPLS", "log10 Kd, replicates": "-0.35 / -0.17 / -0.32 / -0.55 / -0.37 / -0.37", "control signals": "0/18"}

Values of this round are not directly comparable with the first-round values of the same sequences. The authors' rule: three or more of the six replicates give a measured affinity, fewer mean a poor binder. Of ten entries with the parent sequence, four were seen in most replicates (averages 0.34 to 2.37), three in one and three in none, so single entries are noisy. As a blank, each scFv also met three strains without target: over all light chain designs, 4% of these pairings were detected, typically at 2.64 and seldom below 1.59. The control count says in how many pairings with the empty strains this scFv gave a signal, with their mean in brackets.

Source: Li et al. 2023 (doi:10.1038/s41467-023-39022-2), MIT Lincoln Laboratory and A-Alpha Bio; data file from the FLAb repository.